# Results reported in PubChem BioAssay AID501 (PCMD, 2006).
# Chains of the proteins cited; added tags and fusions are not shown. Residues count along the entry.
# UniProt P25774, 115-331 limits assumed: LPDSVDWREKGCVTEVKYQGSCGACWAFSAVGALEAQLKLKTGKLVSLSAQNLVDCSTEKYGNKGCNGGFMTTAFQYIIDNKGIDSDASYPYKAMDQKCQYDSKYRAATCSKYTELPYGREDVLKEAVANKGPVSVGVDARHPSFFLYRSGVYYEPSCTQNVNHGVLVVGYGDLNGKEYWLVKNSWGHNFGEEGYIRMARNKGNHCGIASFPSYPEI
# The entries are a selection whose mix differs from that of the whole data set. Activity calls are given as the source filed them. Rule as the data show it: active = inhibition above about 32% (passing the limit was not always enough); inconclusive = no clear call, values can overlap the other calls.
# Target: Cathepsin S (Homo sapiens) (UniProt P25774)
# Experiment: inhibitors of human cathepsin S, biochemical, compound mixtures (AID 501);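 also: 0% = enzyme without compound and 100% = blank without enzyme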
# Conditions: recombinant cathepsin S, AMC dipeptide fluorescence, pooled mixtures; hits give high values;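 tested at 5 µM per compound within 10-compound mixtures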
row,Structure (SMILES),inhibition
1,CP(=O)(Nc1ccccc1F)Oc1ccccc1 (stereo not drawn),inactive: -5.58%
2,CN(C)CCOC(=O)C(O)(c1ccccc1)C1CCCCC1 (stereo not drawn),inactive: 5.22%
3,CCOP(C)(=S)SCC(=O)NC(C)(CC)C(=O)O (stereo not drawn),inactive: 16.1%
4,Cc1ccccc1NP(C)(=O)Nc1ccccc1C,inactive: 4.28%
5,CP(=O)(Nc1ccc2c(c1)OCCO2)Oc1ccccc1 (stereo not drawn),inactive: 18.3%
6,COc1ccccc1OP(C)(=O)Nc1c(C)n(C)n(-c2ccccc2)c1=O (stereo not drawn),inactive: 17.4%
7,CP(=O)(Oc1ccccc1)N1CCOC1=O (stereo not drawn),inactive: -0.355%
8,CCN(CC)CC(O)COC(=O)C(O)(c1ccccc1)C1CCCCC1 (stereo not drawn),inactive: -1.98%
9,COc1ccccc1OP(C)(=O)Nc1ccc(C)c(C)c1 (stereo not drawn),inactive: 4.1%
10,Cc1nc2ccc3ccccc3c2o1.O=[N+]([O-])c1cc([N+](=O)[O-])c(O)c([N+](=O)[O-])c1,inactive: 13.3%
11,CP(=O)(Nc1ccccn1)Oc1ccccc1 (stereo not drawn),inactive: 1.36%
12,Cc1ccc(NP(C)(=O)Oc2ccccc2)c(C)c1 (stereo not drawn),inactive: 2.69%
13,COc1ccccc1OP(C)(=O)Nc1ccc(C)cc1 (stereo not drawn),inactive: 1.81%
14,CP(=S)(Nn1cnnc1)Oc1ccccc1 (stereo not drawn),inactive: 11.3%
15,CP(=O)(NC(=O)Nc1ccccc1)Oc1ccccc1 (stereo not drawn),inactive: -6.41%
16,CCOP(C)(=S)SCC(=O)NC(C)C(=O)O (stereo not drawn),inactive: 9.35%
17,Cc1nc2ccc3ccccc3c2s1.O=[N+]([O-])c1cc([N+](=O)[O-])c(O)c([N+](=O)[O-])c1,inactive: 2.62%
18,Cc1ccc(C)c(NP(C)(=O)Oc2ccccc2)c1 (stereo not drawn),inactive: 17.3%
